Laboratory results from article PMC6506529, “Structural Insights into Catalytic Versatility of the Flavin-dependent Hydroxylase (HpaB) from Escherichia coli” (Scientific Reports, 2019).

System: O=C1C[C@@H](c2ccc(O)cc2)Oc2cc(O)cc(O)c21
Test: purified protein
Conditions: apparent, 10 μM FAD, 1 mM NADH, 500 nM HpaC, 20 mM KPi pH 7.0, 30 °C

| Substance | Km | kcat | kcat/Km |
| --- | --- | --- | --- |
| EcHpaB (Escherichia coli; A211D/E216S/F208S/M214S/N217D/Q212L/V213G) | 191.6 ± 33.6 µM | 0.15 s⁻¹ | 800 M⁻¹ s⁻¹ |
| EcHpaB (Escherichia coli; A211D/F208A/G207M/G209M/S210V) | 1061.7 ± 21.1 µM | 0.108 s⁻¹ | 100 M⁻¹ s⁻¹ |
